Test results from patent publication US20170235917A1, “SYSTEMS AND METHODS FOR MONITORING AND CONTROLLING A CARD[…] OF A SUBJECT” (THE GENERAL HOSPITAL CORPORATION, priority 2014, published 2017).

Conditions: X = H (HR); mean ± SD, five piglets
Protocol: Five neonatal Yorkshire Duroc piglets of 10+/−3 d of age weighting 2.4+/−0.6 kg were pre-anesthetized with ketamine (33 mg/kg) and atropine (0.05 mg/kg), intubated, and anesthetized using 1.5-3.0% isoflurane while mechanically ventilated. Core body temperature was kept at 38+/−0.5° C. BP, HR, arterial O2 saturation, end-tidal CO2, fraction of inspired O2, and pulmonary compliance were continuously monitored. HR beyond 250 bpm was captured using the PC-Vet wireless ECG system or direct counting. The animals received intravenous heparin (200 units/kg/h), physiologic saline (10 mL/kg/h), and 10 g/dL of dextrose-water to adjust serum glucose levels using Genie Plus syringe pumps validated for stability of infusion rate. Serum electrolytes, base excess (−6 to +6), pH (7.20-7.45), partial arterial O2 pressure (80-120 mmHg) and partial arterial CO2 pressure (35-45 mmHg), and arterial O2 saturation (90-100%) were maintained in the target ranges using sodium bicarbonate, potassium chloride, lactated Ringer's solution, and ventilatory changes, respectively. […] The baseline measurements were recorded after a 15-min postsurgical stabilization period, followed by the escalation of dose, and a 15-min washout period after the discontinuation of the medication. […]

## CNC[C@H](O)c1ccc(O)c(O)c1 [epinephrine]
  tD (delay): 25.1 ± 24.8 s
